Molecular target: EXO70A1 (Arabidopsis thaliana, UniProt Q9LZD3)
Assay: Microscale thermophoresis (MST) with NT-647 labeled EXO70A1
Type: binding
Settings: read-out: Kd (mean ± SE)

Amino acid sequences for entries named in this document (tags omitted). Residues count along the entry.
UniProt Q9LZD3, 75-638 limits assumed: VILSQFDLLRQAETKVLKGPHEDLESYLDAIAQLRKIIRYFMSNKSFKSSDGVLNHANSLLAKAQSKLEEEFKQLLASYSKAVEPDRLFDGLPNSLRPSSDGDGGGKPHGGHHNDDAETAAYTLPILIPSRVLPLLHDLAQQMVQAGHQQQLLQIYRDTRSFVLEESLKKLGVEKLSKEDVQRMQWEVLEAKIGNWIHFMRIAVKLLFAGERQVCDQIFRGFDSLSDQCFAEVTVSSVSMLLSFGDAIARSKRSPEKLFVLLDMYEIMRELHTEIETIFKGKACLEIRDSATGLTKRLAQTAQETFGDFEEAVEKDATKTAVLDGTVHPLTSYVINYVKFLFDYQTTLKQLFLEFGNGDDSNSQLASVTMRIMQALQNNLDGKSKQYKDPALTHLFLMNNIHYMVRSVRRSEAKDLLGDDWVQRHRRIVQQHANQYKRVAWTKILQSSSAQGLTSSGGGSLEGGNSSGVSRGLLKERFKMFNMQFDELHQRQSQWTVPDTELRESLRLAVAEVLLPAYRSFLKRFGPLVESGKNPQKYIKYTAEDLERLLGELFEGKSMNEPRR

## COc1cc(/C=N/NC(=O)c2cccc(F)c2)cc(I)c1O [ES2]
  Kd: 253 µM

From US20180362449A1, “THE EXOCYST AS A NOVEL DRUG TARGET OF ENDOSIDIN2 AND APPLICATION AS A THERAPEUTIC” (The Regents of the University of California, priority 2015, published 2018)
